Molecular target: HZ-L-Yr-16-Fc
Test: ELISA

- binding result: no binding
B1: Human CD40 (receptor)
chain: EPPTACREKQYLINSQCCSLCQPGQKLVSDCTEFTETECLPCGESEFLDTWNRETHCHQHKYCDPNLGLRVQQKGTSETDTICTCEEGWHCTSEACESCVLHRSCSPGFGVKQIATGVSDTICEPCPVGFFSNVSSAFEKCHPWTSCETKDLVVQQAGTNKTDVVCGPQDRLR
